Reference: US20060217370A1, “Compounds useful for the treatment and prevention of pain and screening methods therefor” (priority 2005, published 2006)

The chains behind the UniProt entries cited, without tags or fusion partners. Residues count along the entry.
UniProt Q1L4E8, 1-322: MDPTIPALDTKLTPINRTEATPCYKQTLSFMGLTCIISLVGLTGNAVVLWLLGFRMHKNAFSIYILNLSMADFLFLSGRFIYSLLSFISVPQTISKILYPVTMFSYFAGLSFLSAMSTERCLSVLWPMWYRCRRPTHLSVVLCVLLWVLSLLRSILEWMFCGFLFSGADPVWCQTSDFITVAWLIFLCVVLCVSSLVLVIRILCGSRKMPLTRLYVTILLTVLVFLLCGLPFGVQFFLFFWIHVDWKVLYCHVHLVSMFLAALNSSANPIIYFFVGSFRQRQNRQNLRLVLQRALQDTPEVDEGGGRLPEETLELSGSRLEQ
UniProt Q96LB2, whole entry: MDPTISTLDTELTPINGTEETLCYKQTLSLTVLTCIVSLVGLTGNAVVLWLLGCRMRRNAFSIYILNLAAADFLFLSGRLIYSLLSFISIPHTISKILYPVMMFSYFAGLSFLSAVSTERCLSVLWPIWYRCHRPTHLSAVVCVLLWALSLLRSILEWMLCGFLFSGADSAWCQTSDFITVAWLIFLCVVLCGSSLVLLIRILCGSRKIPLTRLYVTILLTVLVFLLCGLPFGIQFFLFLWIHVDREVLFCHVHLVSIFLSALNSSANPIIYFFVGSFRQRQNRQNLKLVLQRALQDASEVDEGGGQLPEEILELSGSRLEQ
UniProt Q96LB1, whole entry: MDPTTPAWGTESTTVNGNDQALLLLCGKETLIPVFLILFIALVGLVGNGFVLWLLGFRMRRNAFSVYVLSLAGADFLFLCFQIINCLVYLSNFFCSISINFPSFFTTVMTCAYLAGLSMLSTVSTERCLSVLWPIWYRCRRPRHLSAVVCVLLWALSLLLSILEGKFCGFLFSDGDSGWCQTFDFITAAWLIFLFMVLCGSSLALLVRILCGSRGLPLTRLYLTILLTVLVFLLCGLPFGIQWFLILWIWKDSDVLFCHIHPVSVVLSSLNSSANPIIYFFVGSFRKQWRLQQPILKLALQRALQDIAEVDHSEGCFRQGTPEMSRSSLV
UniProt Q4QXU5, whole entry: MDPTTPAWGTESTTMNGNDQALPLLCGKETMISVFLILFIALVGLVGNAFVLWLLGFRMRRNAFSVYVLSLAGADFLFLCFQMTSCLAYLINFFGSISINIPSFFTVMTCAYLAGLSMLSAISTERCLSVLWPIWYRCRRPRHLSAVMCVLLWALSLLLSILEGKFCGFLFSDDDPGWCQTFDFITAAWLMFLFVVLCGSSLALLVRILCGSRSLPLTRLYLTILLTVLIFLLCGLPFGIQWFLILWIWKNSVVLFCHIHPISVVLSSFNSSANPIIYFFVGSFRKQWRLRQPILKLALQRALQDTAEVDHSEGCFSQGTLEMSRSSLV

What was measured:
Assay in all cases: Receptor Selection and Amplification Technology (R-SAT) functional receptor assay
simian MrgX1 = simian MrgX1 (Macaca mulatta, UniProt Q1L4E8, cells depend on it, form not given, species not given); conditions: for Monkey-X1 Eff(%): efficacy relative to Bam22, nr = no response up to 10 micromolar; for Monkey-X1 pEC50: transfected NIH3T3 cells
Experimental: (§1) The functional receptor assay, Receptor Selection and Amplification Technology (R-SAT), was used to investigate the pharmacological properties of test compounds on MRGX1 or MRGX2 receptors. R-SAT is disclosed in U.S. Pat. Nos. 5,707,798, 5,912,132, and 5,955,281, each of which is incorporated by reference herein in its entirety, including any drawings.
(§2) Briefly, NIH3T3 cells were grown in 96-well tissue culture plates to 70-80% confluence. Cells were transfected for 16-20 h with plasmid DNAs using Polyfect (Qiagen Inc.) and the manufacturer's protocols. R-SATs were generally performed with 4 ng/well of receptor and 20 ng/well of β-galactosidase plasmid DNA. The human MrgX1, simian MrgX1, human MrgX2 and simian MrgX2 receptor genes were amplified by PCR from genomic DNA using oligodeoxynucleotide primers based on SEQ ID NO:1, SEQ ID NO:3, SEQ ID NO:5, SEQ ID NO:7, or SEQ ID NO:9. For large-scale transfections, cells were transfected for 16-20 h, then trypsinized and frozen in DMSO. Frozen cells were later thawed, plated at ˜10,000 cells per well of a 96 half-area well plate that contained test compound. With both methods, cells were then grown in a humidified atmosphere with 5% ambient CO2 for five days. The medium was then removed from the plates and marker gene activity was measured by the addition of the β-galactosidase substrate o-nitrophenyl β-galactopyranoside (ONPG, in PBS with 0.5% NP-40). The resulting colorimetric reaction was measured in a spectrophotometric plate reader (Titertek Inc.) at 420 nm. All data were analyzed using the computer program XLFit (IDBSm). Efficacy is defined as the percent maximal activation compared to activation by a control compound (BAM22 in the case of human or simian MRGX1, STIA or Cortistatin-14 in the case of human or simian MRGX2). pEC50 is the negative of log(EC50), where EC50 is the calculated molar concentration of test compound that produces 50% of maximum activation.
(§3) Efficacy is reported relative to the ligands Bam22 for MrgX1 and STIA for MrgX2.

human MrgX1 = human MrgX1 (Homo sapiens, UniProt Q96LB2); conditions: for Human-X1 Eff(%): efficacy relative to Bam22, nr = no response up to 10 micromolar
Experimental: as §1, §2, §3

human MrgX2 = human MrgX2 (Homo sapiens, UniProt Q96LB1); conditions: for Human-X2 Eff(%): efficacy relative to STIA, nr = no response up to 10 micromolar
Experimental: as §1, §2, §3

simian MrgX2 = simian MrgX2 (Macaca mulatta, UniProt Q4QXU5, cells depend on it, form not given, species not given); conditions: for Monkey-X2 Eff(%): efficacy relative to STIA, nr = no response up to 10 micromolar
Experimental: as §1, §2, §3

Monkey-X1 Eff(%) (simian MrgX1) | Monkey-X1 pEC50 (simian MrgX1) | Human-X1 Eff(%) (human MrgX1) | Human-X2 Eff(%) (human MrgX2) | Human-X2 pEC50 (human MrgX2; transfected NIH3T3 cells) | Monkey-X2 Eff(%) (simian MrgX2) | Monkey-X2 pEC50 (simian MrgX2; transfected NIH3T3 cells) | Human-X1 pEC50 (human MrgX1; transfected NIH3T3 cells) | Structure (SMILES)
41 | 5.8 | nr | 95% | 6.7 | 44% | 6.3 |  | CC(C)[C@H]1C(=O)Nc2ccc(NC3CCCCCC3)cc2-c2nc3cc(C(=O)N4CCCN(C)CC4)ccc3n21
89 | 5.6 | 72% | nr |  | nr |  | 7.0 | CC(=O)NC1CCN(c2ccc3c(c2)-c2nc4cc(C(=O)N5CCN(c6ccc(F)cc6)CC5)ccc4n2[C@@H](C(C)C)C(=O)N3)C1 (stereo partly shown)
